# Reference: patent US6750375B2, “Transgenic mouse comprising a disruption in an RGS9 gene” (California Institute of Technology, priority 2000, dated 2004)
# Test system: RGS9 knockout mice and their wild type littermates
# Experiment: Locomotor activity (photobeam cage rack) in unlesioned animals
# Settings: mouse, in vivo
# Experimental: RGS9 knockout mice and their wild type littermates were placed in the photobeam cage rack activity system. The photobeam cage rack activity system was made by San Diego Instruments. Single events represent disruption of two distinct light beams 10 cm apart. Before drug administration, animals were allowed to habituate for 30 min. which was scored as baseline activity. […] All drugs were injected intraperitoneally. Drug effects were assessed for 30 min. Bodyweight was measured prior to all drug applications.
# Locomotion in Unlesioned Animals
smiles,measurement,value
CCCN1CCC[C@@H]2Cc3n[nH]cc3C[C@H]21 [quinpirole],locomotion,dramatically reduced locomotion
same,"locomotion, RGS9 deficient animals vs wild type",trend of being less affected
